Screening results (PubChem)
A549 tox – A549 cytotoxicity, counter-screen for Nrf2 inhibitors; Potency, µM (highest dose often 46 µM), for inactives: at the top dose activity change, negative = cytotoxicity, most hits filed as inhibitors; hit rate 0.16% among 390,000; A549 ARE-Fluc cells, CellTiter-Fluor viability, 18-24 h; also: potency is read from the fitted curve at half-maximal effect; % is scaled to controls: 0 for no effect and ±100 for the full control effect
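Cytotoxicity counterscreen: CellTiter-Fluor fluorescence was measured in A549 ARE_Fluc cells after 18-24 h of compound exposure in a concentration series. The subsequent BugLite luminescent read reports ARE-luciferase activity.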
Nrf2 activator – activates Nrf2 signaling; Potency, µM (titrated, usually from 46.1 µM), for inactives: top-dose activation, actives largely listed as activators; AREc32 ARE-luciferase reporter (MCF7-derived line), luminescence, 24 h; AID 624171; hit rate 0.31% among 410,000; also: potency is read from the fitted curve at half-maximal effect; % of control where 0% means no effect; nearly all actives have a fitted effect of over 65% in size
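AREc32_Fluc, 1000 cells/well, OPTI-MEM + 5% FBS, o/n 37 deg C 5% CO2; 23 nL cpd by pin tool, 24 hr; Steady-Glo 30 min RT, luminescence.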
Glioma ERSR ind – ER stress response induction in glioma. Potency, µM, inactives show at the top dose activation, most hits filed as activators. U87-MG GRP78 promoter luciferase reporter, 16 h. hit rate 0.02% among 420,000. AID 602332; also: potency is read from the fitted curve at half-maximal effect; series mostly up to about 76 µM; % of control where 0% means no effect; nearly all actives have a fitted effect of over 35% in size
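Stably transfected U87-MG glioma cells carrying a GRP78-based luciferase sensor; 16 h compound incubation. Luminescence end-point read 10 min after Bright-Glo addition at room temperature.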
miR-21 FLuc – miR-21 reporter, rising signal | HeLa miR-21 FLuc reporter, luciferase, 48 h | Potency, µM (top dose mostly 38.3 µM), inactives show at the highest dose reporter change, positive = more light | 340,000 tested, under 10 active | AID 2288; active = well fitted rising curve with a large enough effect; inconclusive = small, poorly fitted or top-dose-only effect; inactive = no such curve, though single readings can be large or run the other way;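 note: % of control where 0% means no effect; miR-21 action dims this reporter so a rising signal means less miR-21 action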
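HeLa miR-21-FLuc reporter line, endogenous miR-21; 2000 cells/well in DMEM/10% FBS; compound titration up to ~40uM final, 48 h, 37 degree Celsius; luciferase detection reagent, 15 min lysis, CCD luminescence.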
PTAP TSG101 blk – blocks PTAP/TSG101 interaction to inhibit HIV-1 budding. 340,000 tested, under 10 active. Fluorescence polarization, FITC-PTAP peptide / Tsg101 binding. Q99816. Potency, µM (highest dose often 115 µM), inactives show top-dose activity change, negative = inhibition, hits mostly inhibitors; active = well fitted inhibition curve with a large enough effect in the main read-out, with a control signal flat, not every such curve was filed as active; inconclusive = small, poorly fitted or top-dose-only effect, or effect the other way, or a change in a side signal; inactive = no such curve, though single readings can be large or run the other way; also: potency is read from the fitted curve at half-maximal effect; % of control where 0% means no effect
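Fluorescence polarization binding of Tsg101 binding domain (10 uM final) to FITC-labeled PTAP peptide (50 nM final) in HEPES pH 7.5 buffer with NaCl, Tween 20, EDTA, TCEP. Compounds added before peptide; binding 20 min at RT.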
Nrf2 block – inhibitors of Nrf2 signaling; A549 ARE-Fluc reporter, luciferase luminescence, 18-24 h; Potency, µM (highest dose often 46 µM), inactives show at the top dose activity change, negative = inhibition, most hits filed as inhibitors; hit rate 2.1% among 360,000; AID 504444; also: potency is read from the fitted curve at half-maximal effect; % is scaled to controls: 0 for no effect and ±100 for the full control effect; nearly all actives have a fitted effect of over 60% in size
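A549 ARE_Fluc cells, 5000/well, 5% FBS OPTI-MEM; compounds in dose-response, 18-24 h at 37 °C/5% CO2; CellTiter-Fluor viability read (Ex 405/Em 525), then BugLite luciferase luminescence = Nrf2 activity.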
An asterisk follows results filed as active; ? = inconclusive; / = not tested or not shown. Sampled rows, rich in hits. Any-hit rate of the full collection: about 2.1%. Unless noted, calls follow the shape of the dose curve; as a rule, active = well fitted curve in the direction sought with a large enough effect; inconclusive = small, poorly fitted or top-dose-only effect, or another doubt; inactive = no such curve, though single readings can be large; an effect the other way counts as inactive or inconclusive.

The first four compounds, to show the layout:
SMILES | A549 tox | Nrf2 activator | Glioma ERSR ind | miR-21 FLuc | PTAP TSG101 blk | Nrf2 block
COc1cccc(CN2CCC(n3cc(C(=O)NC4CCCC4)nn3)CC2)c1O | / | / | -1.7% | / | / | /
CCc1ccc2oc(-c3ccc(C)c(NC(=O)COc4ccccc4Cl)c3)nc2c1 | / | / | -4.7% | / | / | /
CCOc1ccccc1-c1nnc2n1N=C(c1cccc(OC)c1)CS2 | -1.9% | / | / | / | / | 10.8%
O=c1cc(CSc2nnc(-c3cccs3)n2Cc2ccccc2)nc2sc3ccccc3n12 | -29.0% | -0.5% | 5.5% | 22.0% | -0.8% | 25.9µM*

The whole of this part, previewed entries included:
SMILES | A549 tox | Nrf2 activator | Glioma ERSR ind | miR-21 FLuc | PTAP TSG101 blk | Nrf2 block
COc1cccc(CN2CCC(n3cc(C(=O)NC4CCCC4)nn3)CC2)c1O | / | / | -1.7% | / | / | /
CCc1ccc2oc(-c3ccc(C)c(NC(=O)COc4ccccc4Cl)c3)nc2c1 | / | / | -4.7% | / | / | /
CCOc1ccccc1-c1nnc2n1N=C(c1cccc(OC)c1)CS2 | -1.9% | / | / | / | / | 10.8%
O=c1cc(CSc2nnc(-c3cccs3)n2Cc2ccccc2)nc2sc3ccccc3n12 | -29.0% | -0.5% | 5.5% | 22.0% | -0.8% | 25.9µM*
Nc1nc(SCC(=O)Nc2cccc(Oc3ccccc3)c2)n[nH]1 | -2.8% | 3.9% | -3.6% | -11.9% | -8.4% | 16.4µM*
COc1ccc(OC)c(NC(=O)C(OC(=O)CNC(=O)c2ccccc2)c2ccccc2)c1 (stereo not given) | -5.6% | / | / | / | / | -1.9%
COc1ccc2[nH]cc(C=O)c2c1 | -8.0% | -0.3% | -5.0% | 2.0% | -11.4% | 14.6%
COc1ccc2[nH]cc(/C=C/c3cc[n+](C)cc3)c2c1 | ? | 5.9% | -4.1% | 22.2% | ? | 10.3µM*
CC(C)(C)OC(=O)NCCCCCNC(=O)c1nc[nH]c1C(=O)NCCCCCNC(=O)OC(C)(C)C | -26.5% | -3.7% | -9.6% | / | -5.7% | 13µM*
CC(C)(C)OC(=O)NCCCCCNC(=O)c1nc[nH]c1C(=O)NCc1ccc(CNC(=O)OC(C)(C)C)cc1 | ? | -2.5% | -7.2% | / | -0.9% | 13µM*
CC(C)(C)OC(=O)NCCCCCNC(=O)c1nc[nH]c1C(=O)NCC(=O)OCc1ccccc1 | -25.6% | -0.7% | -5.7% | / | -2.8% | -28.3%
CC(C)(C)OC(=O)NCCCCCNC(=O)c1[nH]cnc1C(=O)N[C@@H](CCCCNC(=O)OC(C)(C)C)C(=O)OC(C)(C)C | -11.7% | -1.0% | -5.6% | 23.7% | -4.3% | 23.1µM*
CC(C)(C)OC(=O)NCCCC[C@H](NC(=O)c1nc[nH]c1C(=O)N[C@@H](CCCCNC(=O)OC(C)(C)C)C(=O)OC(C)(C)C)C(=O)OC(C)(C)C | -14.1% | 0.3% | -1.2% | 21.9% | -9.9% | ?
Cc1cccc(NC(=O)c2nc[nH]c2C(=O)NCCCCCNC(=O)OC(C)(C)C)c1 | ? | -4.7% | -7.8% | / | -2.1% | 20.6µM*
CCOc1ccc(NC(=O)CSc2nnc3c(n2)[nH]c2ccc(S(=O)(=O)N4CCCCC4)cc23)cc1 | 1.4% | / | / | / | / | 0.0%
CCCCCC1CCNCC1 | / | / | -4.8% | / | / | /
Cc1ccc(NS(=O)(=O)c2cc3c(cc2C)NC(=O)CO3)cc1C | 1.0% | / | / | / | / | -16.4%
Cn1c(=O)n(C)c2cc([N+](=O)[O-])c(N3CCN(S(=O)(=O)c4ccc(C(C)(C)C)cc4)CC3)cc21 | 11.0% | 0.1% | -6.5% | -0.5% | 3.5% | ?
Cn1c(=O)n(C)c2cc([N+](=O)[O-])c(N3CCN(C(=O)c4ccc(F)cc4)CC3)cc21 | -22.2% | 3.9% | -2.8% | -3.1% | -4.0% | 18.4µM*
CC(=O)N1CCN(c2cc(N3CCc4ccccc4C3)c(F)cc2[N+](=O)[O-])CC1 | ? | 4.2% | 0.2% | -6.2% | / | 23.1µM*
Cn1c(=O)n(C)c2cc([N+](=O)[O-])c(N3CCN(C(=O)c4ccc(Cl)cc4)CC3)cc21 | 2.2% | 2.3% | 0.4% | -3.9% | -1.5% | ?
O=C(c1cccc(F)c1)N1CCN(c2cc(N3CCCCC3)c(F)cc2[N+](=O)[O-])CC1 | ? | 0.4% | -1.7% | -0.5% | -3.6% | 20.6µM*
CC(=O)Nc1ccc(S(=O)(=O)N2CCN(c3cc4c(cc3[N+](=O)[O-])n(C)c(=O)n4C)CC2)cc1 | 3.6% | 4.0% | -2.6% | 17.0% | / | 16.4µM*
CCC(=O)N1CCN(c2cc(N3CCCC3)c(F)cc2[N+](=O)[O-])CC1 | 1.6% | 1.7% | -2.5% | / | -3.7% | -24.8%
CSc1ccc(CCNc2ncnc3onc(C)c23)cc1 | 4.1% | 2.0% | -1.1% | -2.8% | / | 7.31µM*
CCn1c(C)nc2cc(-c3nc4n(n3)Cc3ccccc3-4)ccc21 | -6.7% | -4.5% | -15.3% | ? | -9.7% | 2.31µM*
Cc1ccc(-c2nc3n(n2)Cc2ccccc2-3)cc1 | 0.4% | -1.1% | -12.2% | 11.6% | -2.3% | ?
CC(Oc1ccccc1)C(=O)NNC(=O)c1ccccn1 (stereo not given) | -10.5% | -0.5% | -2.8% | ? | 0.3% | ?
C/C(=N\NC(=O)C(C)Oc1ccc([N+](=O)[O-])cc1)c1ccccn1 (stereo not given) | ? | 22.5% | -6.8% | 19.7% | -2.0% | 6.51µM*
CCC(NC(=O)c1cc(COc2ccc(F)cc2Cl)on1)c1ccncc1 (stereo not given) | ? | 0.0% | -0.8% | 9.6% | 0.2% | 16.4µM*
CC(=O)c1c(C(C)=O)c(C)n(-c2ccc(C)c(NC(=O)c3ccccc3Cl)c2)c1C | -8.5% | -0.5% | -2.9% | 1.6% | / | 14.6µM*
COc1ccc(NC(=O)C23CC4CC(C2)CC(c2ccc(C)cc2)(C4)C3)cc1 | -18.0% | 3.7% | -4.5% | 11.7% | -0.4% | 16.4µM*
COc1ccc(C(=O)NC(=S)NNC(=O)[C@H]2C[C@@H]2c2ccccc2)cc1OC | 0.4% | 0.3% | -1.4% | 4.2% | 0.0% | 16.4µM*
COc1ccc(C(=O)NC(=S)Nc2ccc3c4c(cccc24)CC3)cc1OC | -15.6% | -0.8% | -4.2% | -4.1% | -2.7% | 7.31µM*
CC(C)(S)C(=O)NC(CS)C(=O)O (stereo not given) | / | / | -3.6% | / | / | /
CN1CCCc2cc(/C=C/c3ccnc4ccccc34)ccc21 | / | / | -1.0% | / | / | /
COc1cccc(N=C2SC(C(=O)Nc3ccc(F)cc3)CC(=O)N2C)c1 (stereo not given) | ? | 0.4% | -0.4% | 12.6% | -0.5% | 20.6µM*
O=C(Oc1ccc(=O)n(-c2ccccc2)n1)c1ccc(Cl)cc1 | -9.0% | 0.5% | -6.2% | -1.3% | -1.2% | -8.8%
COc1ccc(C(=O)Oc2ccc(=O)n(-c3ccccc3)n2)cc1 | / | -0.1% | -3.8% | 0.2% | -3.1% | 1.64µM*
Cc1cccc(CNC(=O)c2c3n(c(C)cc2=O)-c2ccccc2SC(c2ccsc2)C3)n1 (stereo not given) | / | / | -4.0% | / | / | /
COc1ccccc1C(c1nnnn1Cc1ccco1)N1CCN(c2cccc(C)c2C)CC1 (stereo not given) | -14.8% | -0.8% | -7.6% | 11.4% | -4.3% | 11.6µM*
Cc1nc2ccc(S(=O)(=O)N3CCN(S(=O)(=O)c4c(F)cccc4F)CC3)cc2s1 | -2.9% | / | / | / | / | -4.9%
C/C(=N\NC(=S)NCC(C)(C)C)c1cc(F)cc(F)c1O | ? | 10µM* | 1.9% | -4.8% | -5.0% | 23.1µM*
